Earlier results in patent US10155995B2 (dated 2018).

System: intracardiac IM
Settings: single case report (Auriti et al. 2008)

interferon alpha-2b
regression of an intracardiac IM: regression
